Results: PMC3661926 (Acta Neuropathologica, 2013)

System: (Thy1)-h[A30P]α-syn mice
Assay: Transgenic α-synuclein mouse model

Structure (SMILES): Brc1cccc(-c2cc(-c3ccc4c(c3)OCO4)n[nH]2)c1 [anle138b, 3-(1,3-benzodioxol-5-yl)-5-(3-bromophenyl)-1H-pyrazole]
- prolongation of (median) disease-free survival (A30P-hum-α-syn transgenic mice, oral in DMSO/peanut butter from 8 weeks of age): 10 weeks
- fluctuations in rotarod motor performance (prodromal phase, 300–450 days of age): significantly reduced fluctuations in motor performance
